Reference: patent publication US10344035B2, “Salt of quinolone compound, polymorphs thereof, preparation method therefor, composition, and applications” (SHANGHAI PHARMACEUTICALS HOLDING CO., LTD., priority 2015, dated 2019)

Assays:
[1] = tested on: H1993 human lung cancer cell; assay: Inhibition of proliferation of human lung cancer H1993 cells (CCK-8); assay type: cell-based; details: NCI-H1993, 72 h, CCK-8, 72 hours incubation, read-out: IC50, proliferation of H1993 cell line
Description: In the present embodiment, the Cell Counting Kit-8 (CCK-8) reagent was used to screen the compound SPH1772 and the salt thereof for inhibiting tumor cell proliferation against human lung cancer H1993 cell line, which was used to evaluate the in vitro inhibitory activity of the test compounds on this cell line.
CCK-8 is a kit for detecting cell proliferation, cell survival and cytotoxicity and an alternative method for the MTT method.
All samples were formulated to a 10^−2 M stock solution with DMSO and stored in small quantities at −80° C. for use.
1, Cell culture and inoculation: on the first day of the experiment, took normal cultured cells, when cells were in the exponential growth phase, the cells were dispersed by digesting and then inoculated in a 96-well cell culture plate at a density of 5.5×10^4 cells/mL (representing 55000 cells per mL), 90 μL per well; after completion of inoculation, the microplate was placed at 37° C. under 5% CO2 condition overnight. […]
3, Data acquisition: the compound and cells were incubated for 72 hours, the microplate containing the cells was taken out from incubator, 10 μL Cell Counting Kit-8 reaction solution was added to each well, and the microplate was placed in an incubator for 2-3 hours. The absorbance values were measured at 450 nm on the Flexstation 3 and set 650 nm as the reference wavelength. […]

[2] = tested on: human hepatoma MHCC97H cell line; assay: Anti-tumor effect in MHCC97H xenograft model; assay type: in vivo, BALB/c nude mice; details: 25th day after dosing
Protocol: BALB/c nude mice were subcutaneously inoculated with MHCC97H cells to develop human hepatocellular carcinoma subcutaneously transplanted tumor model. The experiment was divided into groups including crystal form A of SPH1772 ditartrate (0.05 mg/kg, 0.5 mg/kg and 5 mg/kg), positive control INC280 hydrochloride (5 mg/kg), and Vehicle control group, 10 mice in each group, intragastric administration once a day, lasting 21 days. The efficacy was according to the relative tumor inhibition rate (TGI) and tumor growth delay time, the safety was evaluated according to animal weight and death.
BALB/c nude mice, female, 7 to 9 weeks old (the age when mice were inoculated with tumor cells), weight 19.5 to 23.9 g, 75 animals. BALB/c nude mice were purchased from Shanghai Lingchang Biotechnology Co., Ltd., animal certificate number: 2013001816956. Rearing environment: SPF level.
MHCC97H (Zhongshan Hospital subsidiary to Fudan University) was cultured in DMEM containing 10% fetal bovine serum. MHCC97H cells were collected during exponential growth phase, the cells in PBS was re-suspended to a suitable concentration for subcutaneous tumor inoculation in mice. […]
All experimental results were expressed as mean tumor volume±SEM (mean standard error). […] All data was analyzed by SPSS 18.0. p<0.05 was considered having significant differences.

SMILES | IC50 [1] | relative tumor volume (x ± S) ([2]; 5 mg/kg intragastric once a day) | TGI (relative tumor inhibition rate) ([2]; 5 mg/kg, from relative tumor volume)
CNC(=O)c1ccc(-c2cnc3ncc(Cc4ccc5ncccc5c4)n3n2)cc1F [INCB28060, Capmatinib] | 2.1 nM | – | –
CNC(=O)c1ccc(-c2cnc3ncc(Cc4ccc5ncccc5c4)n3n2)cc1F [INC280] | – | 1.05 ± 0.09 | 91%
